Measured values published in US20210319279A1.
“And” between values parts separate entries of the source, which are not always exact repeats. Equal values may be shown once.

Amino acid sequences for entries named in this document (tags omitted). A change or cut given only in a name is not applied to a line headed by its entry.
UniProt P30874: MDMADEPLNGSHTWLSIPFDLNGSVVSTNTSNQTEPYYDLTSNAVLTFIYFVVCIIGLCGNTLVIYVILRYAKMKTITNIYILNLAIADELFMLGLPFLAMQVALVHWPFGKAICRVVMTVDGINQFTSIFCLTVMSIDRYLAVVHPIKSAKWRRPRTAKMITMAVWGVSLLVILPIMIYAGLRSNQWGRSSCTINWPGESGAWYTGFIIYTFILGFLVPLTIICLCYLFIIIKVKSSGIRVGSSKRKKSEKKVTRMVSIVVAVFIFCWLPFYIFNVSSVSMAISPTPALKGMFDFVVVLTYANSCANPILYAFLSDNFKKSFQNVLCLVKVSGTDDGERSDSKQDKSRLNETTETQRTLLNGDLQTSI
UniProt P61278: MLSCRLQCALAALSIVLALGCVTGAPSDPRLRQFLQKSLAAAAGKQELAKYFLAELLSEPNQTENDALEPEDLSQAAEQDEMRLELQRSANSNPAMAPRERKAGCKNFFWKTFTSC

Target: recombinant human somatostatin receptor 2 (SSTR2) expressed in the plasma membrane of yeast (human) (UniProt P30874)
Test: cell-based or functional assay

Substance: recombinant human SST-14 secreted by yeast (from UniProt P61278 103-116) (peptide)
- beta-lactamase concentration (kinetic nitrocefin assay), fold change of induced rsX626 against its uninduced condition: 20 fold and 30 fold
